Source: patent US20240293387A1, “Methods of Treating Fabry Disease in Pediatric Patients” (Amicus Therapeutics, Inc., priority 2021, published 2024)

Test: Population PK (popPK) model of migalastat in adults (NONMEM, bootstrap)
Parameters: species or system human
Conditions: for Typical EGFR-related estimate, Estimate (% RSE) / Typical total CL/F: Fabry disease
Description: A population pharmacokinetics (popPK) model previously developed from healthy adult volunteers and adult patients with Fabry disease after oral migalastat administration. After pooling plasma concentration-time data from Phase I, II, and III studies of AT1001 administered orally in adults using a range of doses from 25 mg to 675 mg and regimens under fasting conditions. […] In contrast, other covariates such as sex, age, drug formulation (solution or suspension vs 25 mg capsule vs 150 mg capsule) were not statistically/clinically significant. Since renal function gradually increases from birth and reaches adult levels by the second year of life (Rubin 1949), there are no expected age-dependent changes in eGFR in the pediatric population 2 years and older than adults. Additionally, pediatric patients with Fabry disease usually have a normal renal function or may experience renal hyperfiltration (Hopkin 2008); therefore, weight-based dosing regimens, assuming that pediatrics have a normal renal function, were planned for the simulations in pediatric Fabry patients. NONMEM program was used to develop the population PK model of migalastat in adults using first-order conditional estimation with interaction (FOCE-I). Simulations were conducted using NONMEM to obtain plasma concentration-time; all graphical analyses were performed using R; noncompartmental analysis and pharmacokinetic parameters summaries were conducted using Phoenix WinNonlin. Bootstrapping and visual predictive checks (VPC)s were conducted using Perl-speaks-NONMEM (PsN) R packages of popED and mrgsolve were used in the optimal sampling strategy. […] The overall purpose of the model development was to come up with a model for pediatric extrapolation. […] Moreover, pediatric CLT/F values extrapolated from the non-renal model were higher than the overall CLT/F approach, resulting in higher pediatric doses for achieving equivalent exposures with adults which was a less conservative approach. Therefore, the overall CLT/F scaling approach is more conservative and was chosen for the final model, which is shown in Table 6. The estimated parameters from bootstrap (see Table 6) were nearly identical to those estimated from the original dataset. All parameters were estimated with adequate precision.

[1] = Bootstrap, EGFR = 90 mL/min/1.73 m^2, body weight ≥ 70 kg
[2] = NONMEM, EGFR = 90 mL/min/1.73 m^2, body weight ≥ 70 kg

## OC[C@H]1NC[C@H](O)[C@@H](O)[C@H]1O [migalastat, (2R,3S,4R,5S)-2-(hydroxymethyl) piperdine-3,4,5-triol]
[1]
  Typical EGFR-related estimate, Estimate (% RSE): 18.5 (16.0%);
  Typical total CL/F: 14.9 L/h
Bootstrap, EGFR = 120 mL/min/1.73 m^2, body weight ≥ 70 kg
  Typical total CL/F: 16.4 L/h
Bootstrap, EGFR > 120 mL/min/1.73 m^2, body weight ≥ 70 kg
  Typical EGFR-related estimate, Estimate (% RSE): 20.6 (17.3%);
[2]
  Typical EGFR-related estimate, Estimate (% RSE): 18.6 (16.3%);
  Typical total CL/F: 14.8 L/h
NONMEM, EGFR = 120 mL/min/1.73 m^2, body weight ≥ 70 kg
  Typical total CL/F: 16.5 L/h
NONMEM, EGFR > 120 mL/min/1.73 m^2, body weight ≥ 70 kg
  Typical EGFR-related estimate, Estimate (% RSE): 20.9 (17.4%);
eGFR values between 30 and 120 mL/min/1.73 m^2
  Average range of migalastat exposure with renal function: 3 fold
